The results in this text go back to patent US20240131155A1, “T CELLS FOR USE IN THERAPY” (Erasmus University Medical Center Rotterdam, priority 2021, published 2024).

This assay deals with T1, ROPN1B peptide on HLA-A*02:01 (human).
T1 peptide: EVIGPDGLITV
Kind of assay: multimer staining.

B1: EVI TCR (TCR, V domains shown)
Valpha: AQSVTQLDSQVPVFEEAPVELRCNYSSSVSVYLFWYVQYPNQGLQLLLKYLSGSTLVKGINGFEAEFNKSQTSFHLRKPSVHISDTAEYFCAARTGGGNKLTFGTGTQLKVEL
Vbeta: DTEVTQTPKHLVMGMTNKKSLKCEQHMGHRAMYWYKQKAKKPPELMFVYSYEKLSINESVPSRFSPECPNSSLLNLHLHALQPEDSALYLCASSQEGLAGVPQYFGPGTRLLVL
B1: the binding result was “recognises”.
